Test results as given in ChEMBL document CHEMBL6103545, “Discovery of GS-2278, a Potent and Selective LPAR1 Antagonist for the Treatment of Idiopathic Pulmonary Fibrosis” (J Med Chem, 2025).

Amino acid sequences for entries named in this document (tags omitted). A change or cut given only in a name is not applied to a line headed by its entry.
UniProt Q9H1C0: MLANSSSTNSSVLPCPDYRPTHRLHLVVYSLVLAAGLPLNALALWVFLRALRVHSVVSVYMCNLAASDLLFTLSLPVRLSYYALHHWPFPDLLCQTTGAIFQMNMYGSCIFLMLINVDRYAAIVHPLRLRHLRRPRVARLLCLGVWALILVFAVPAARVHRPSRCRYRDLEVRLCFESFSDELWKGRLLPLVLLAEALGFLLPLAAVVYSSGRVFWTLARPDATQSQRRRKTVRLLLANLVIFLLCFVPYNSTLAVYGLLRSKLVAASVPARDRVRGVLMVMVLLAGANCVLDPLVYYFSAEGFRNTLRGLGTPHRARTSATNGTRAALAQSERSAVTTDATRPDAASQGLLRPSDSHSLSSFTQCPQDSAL

Assays:
[1] = target: T1, Lysophosphatidic acid receptor 3 (Homo sapiens) (UniProt Q9UBY5); assay: Antagonist activity at human LPA3 receptor at 10 uM relative to control; format: functional; conditions: filed as antagonist
T1 sequence (whole entry): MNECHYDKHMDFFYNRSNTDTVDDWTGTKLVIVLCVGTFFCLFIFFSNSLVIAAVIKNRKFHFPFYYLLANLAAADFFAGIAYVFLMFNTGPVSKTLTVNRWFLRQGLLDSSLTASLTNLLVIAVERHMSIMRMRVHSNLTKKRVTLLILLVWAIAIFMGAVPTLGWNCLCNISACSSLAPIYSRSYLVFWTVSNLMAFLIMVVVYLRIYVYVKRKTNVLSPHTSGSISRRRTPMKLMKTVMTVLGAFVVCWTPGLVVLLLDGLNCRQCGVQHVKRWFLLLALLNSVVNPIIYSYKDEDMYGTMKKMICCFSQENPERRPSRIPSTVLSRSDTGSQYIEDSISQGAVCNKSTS

[2] = target: Lysophosphatidic acid receptor 5 (Homo sapiens, UniProt Q9H1C0); assay: Antagonist activity at human LPA5 receptor at 10 uM relative to control; format: functional
[3] = target: T2, Vasopressin V1b receptor (Homo sapiens) (UniProt P47901); assay: Antagonist activity at human AVPR1b expressed in U2OS cells at 30 uM by gpcrSCAN assay; format: cell-based; conditions: filed as antagonist
T2 sequence (whole entry): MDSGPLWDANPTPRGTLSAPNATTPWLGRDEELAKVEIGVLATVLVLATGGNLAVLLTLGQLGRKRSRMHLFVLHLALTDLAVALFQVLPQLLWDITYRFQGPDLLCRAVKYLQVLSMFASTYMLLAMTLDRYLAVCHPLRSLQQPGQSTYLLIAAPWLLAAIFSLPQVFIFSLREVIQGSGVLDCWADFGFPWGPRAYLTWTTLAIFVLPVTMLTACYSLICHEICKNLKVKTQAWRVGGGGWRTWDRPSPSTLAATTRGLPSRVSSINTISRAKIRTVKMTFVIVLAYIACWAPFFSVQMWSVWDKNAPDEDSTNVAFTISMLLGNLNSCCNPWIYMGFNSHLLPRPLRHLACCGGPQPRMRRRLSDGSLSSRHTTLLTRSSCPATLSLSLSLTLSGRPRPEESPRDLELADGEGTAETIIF

Question: What does the source list for `C[C@@H](OC(=O)Nc1c(-c2ccc(NC(=O)c3cnc(C(F)(F)F)nc3)cn2)nnn1C)c1cc(F)cnc1F`?
Answer: inhibition [1]: 69%; inhibition [2]: 35%; inhibition [3]: 63%
